Assay results reported in ChEMBL document CHEMBL4619720, “Synthesis and biological evaluation of new antioxidant and antiproliferative chalcogenobiotin derivatives for bladder carcinoma treatment” (Bioorg Med Chem, 2020).

How the values were obtained:
[1] = test system: 5637; assay: Antiproliferative activity against human 5637 cells assessed as inhibition of cell growth after 48 hrs by MTT assay; type: functional, cell-based
[2] = test system: 5637; assay: Antiproliferative activity against human 5637 cells assessed as inhibition of cell growth after 24 hrs by MTT assay; type: functional, cell-based

Row | Structure (SMILES) | inhibition [1] | inhibition [2]
1 | O=C1N[C@H]2[C@H](CS[C@H]2CCCCC(=O)OCCCC[Te]c2ccccc2)N1 | Dose-dependent effect | Dose-dependent effect
2 | O=C1N[C@H]2[C@H](CS[C@H]2CCCCC(=O)OCCCCC[Te]c2ccccc2)N1 | Dose-dependent effect | Dose-dependent effect
